From US20250144067A1, “PERSONALIZED STARVATION THERAPY FOR CANCER” (Faeth Therapeutics, Inc., priority 2021, published 2025) come the findings set out here.

Structures can show the parent of a compound that is named as a salt. Where two headings read alike, the source gives them in different places.

The subject of assay [1] is NCI-H292 lung cancer cells. In words: FDA drug screening, complete media vs cholesterol-free media without statin (TABLE 1).
The test system of assay [2] is NCI-H292 lung cancer cells. The assay is described as follows: FDA drug screening, complete media vs cholesterol-free media with simvastatin (TABLE 2).
Setting [3] is: NCI-H292 cells, FDA drug library screen, complete media.
[4] abbreviates: NCI-H292 cells, complete media, FDA drug library screen.
Where [5] appears, read: NCI-H292 cells, FDA drug library screen, cholesterol-free media without statin.

As to `C[C@@H]1C[C@H]2[C@@H]3C[C@H](F)C4=CC(=O)C=C[C@]4(C)[C@@]3(F)[C@@H](O)C[C@]2(C)[C@@]1(O)C(=O)CO` [Flumethasone], in assay [1], the Cholesterol-free amounted to 1.224, the Complete was 0.7145 and the Difference is −0.51. Moreover, in assay [2], the “Cholesterol-free media + simvastatin (0.04 μM)” value worked out at 0.5965, the “Complete Media” value is reported as 0.7772 and the Difference was 0.18.

For the compound `C[C@@H](O)[C@H]1C(=O)N2C(C(=O)OCOC(=O)C(C)(C)C)=C(SC3CN(C4=NCCS4)C3)[C@H](C)[C@H]12` [Tebipenem pivoxil], in assay [1], the Cholesterol-free was found to be 1.001, the Complete was determined as 0.9986 and the Difference turned out to be 0.00. Also, in assay [2], the “Cholesterol-free media + simvastatin (0.04 μM)” value was 0.7368, the “Complete Media” value was 0.8356 and the Difference was determined as 0.10.

Compound `CCOCCn1c(C2CCN(CCc3ccc(C(C)(C)C(=O)O)cc3)CC2)nc2ccccc21` [Bilastine] showed a Complete in assay [1] (NCI-H292 cells, complete media) of 1.166.

`Cc1c(C(=O)Nc2ccc(S(C)(=O)=O)cc2)cn(CCO)c1-c1ccccc1C(F)(F)F` [Esaxerenone] registered a Complete in assay [1] (setting [3]) of 1.152.

In the case of `CC(C)C[C@@H](N)C(=O)N[C@H]1C(=O)N[C@@H](CC(N)=O)C(=O)N[C@H]2C(=O)N[C@H]3C(=O)N[C@H](C(=O)N[C@H](C(=O)O)c4cc(O)cc(O)c4-c4cc3ccc4O)[C@H](O)c3ccc(c(Cl)c3)Oc3cc2cc(c3O[C@@H]2O[C@H](CO)[C@@H](O)[C@H](O)[C@H]2O[C@H]2C[C@](C)(N)[C@H](O)[C@H](C)O2)Oc2ccc(cc2Cl)[C@H]1O.Cl` [Norvancomycin (hydrochloride)], the Complete in assay [1] (setting [3]) came out at 1.173.

Compound `CS(=O)(=O)c1ccc(C2=C(c3ccccc3)C(=O)OC2)cc1` [Rofecoxib] showed a Complete in assay [1] (setting [4]) of 1.149. For the same compound, the “Complete Media” value in assay [2] (setting [3]) was 1.147.

Compound `O=C(OCC(O)CO)c1ccccc1Nc1ccnc2cc(Cl)ccc12` (stereo not shown) [Glafenine] displayed a Complete in assay [1] of 1.17.

In turn, `O=C1CCc2cc(OCCCCc3nnnn3C3CCCCC3)ccc2N1` [Cilostazol] gave a Complete in assay [1] (NCI-H292 cells, complete media) of 1.174.

`COc1ccc(/C=C/C(=O)Nc2ccccc2C(=O)O)cc1OC` [trans-Tranilast] displayed a Cholesterol-free in assay [1] (setting [5]) of 0.9454.

Turning to `Oc1ccc(C=Cc2cc(O)cc(O)c2)cc1` [Resveratrol], the Complete in assay [1] (setting [4]) is 1.166.

`C[N+](C)(C)C[C@H](O)CC(=O)[O-].Cl` [L-Carnitine (hydrochloride)] had a Complete in assay [1] (NCI-H292 cells, complete media) of 1.167.

`Nc1ncnc2c1ncn2[C@@H]1O[C@H](CO)[C@@H](O)[C@H]1O` [Adenosine]: the Cholesterol-free in assay [1] (setting [5]) came out at 0.9448.

In turn, `CC(C)NCC(O)COc1ccc(CC(N)=O)cc1` (stereo not shown) [Atenolol] returned a Complete in assay [1] (NCI-H292 cells, complete media) of 1.168.

For the compound `CCc1ccc(CCOc2ccc(CC3SC(=O)NC3=O)cc2)nc1` (stereo not shown) [Pioglitazone], in assay [1] (setting [4]), the Complete is reported as 1.169.

`CCN1CCN(C(=O)N[C@@H](C(=O)N[C@@H]2C(=O)N3C(C(=O)O)=C(CSc4nnnn4C)CS[C@H]23)c2ccc(O)cc2)C(=O)C1=O` [Cefoperazone (sodium salt)] yielded a Complete in assay [1] (setting [4]) of 1.174.

As to `CN1CCN2c3ccccc3Cc3ccccc3C2C1` (stereo not shown) [Mianserin (hydrochloride)], the Complete in assay [1] (setting [4]) was 1.175.

`OC(CNCC(O)C1CCc2cc(F)ccc2O1)C1CCc2cc(F)ccc2O1` (stereo not shown) [Nebivolol (hydrochloride)] returned a Complete in assay [1] (setting [4]) of 1.174.

With `CCCOc1ccc(S(=O)(=O)N2CCN(CCO)CC2)cc1-c1nc2c(CCC)cn(CC)c2c(=O)[nH]1` [Mirodenafil (dihydrochloride)], in assay [1] (NCI-H292 cells, complete media), the Complete is reported as 1.17.

In the case of `O=C1OCCN1/N=C/c1ccc([N+](=O)[O-])o1` [Furazolidone], the Complete in assay [1] (setting [4]) stood at 1.15.

Regarding `COc1cc(C(C)=O)ccc1OCCCN1CCC(c2noc3cc(F)ccc23)CC1` [Iloperidone], the Cholesterol-free in assay [1] (NCI-H292 cells, cholesterol-free media without statin, FDA drug library screen) was 0.9455.

Methylergometrine (maleate) displayed a Complete in assay [1] (NCI-H292 cells, complete media) of 0.7152.

Turning to `CCn1c(=O)c2c(nc(/C=C/c3ccc(OC)c(OC)c3)n2C)n(CC)c1=O` [Istradefylline], in assay [1] (setting [4]), the Complete was 1.167.

Compound `N[C@@H](CS)C(=O)O` [L-Cysteine] came in with a Cholesterol-free in assay [1] (NCI-H292 cells, cholesterol-free media without statin) of 0.9453.

With `CCOC(CN1CCN(CC(C)C(=O)c2ccccc2)CC1)c1ccccc1` (stereo not shown) [Eprazinone (dihydrochloride)], the Complete in assay [1] (setting [3]) turned out to be 1.172.

`O=C1c2ccccc2C(=O)C1c1ccccc1` [Phenindione] returned a Complete in assay [1] (setting [4]) of 1.152.

In assay [1] (setting [3]), `CC1CNc2c(cccc2S(=O)(=O)N[C@@H](CCCNC(=N)N)C(=O)N2CC[C@@H](C)C[C@@H]2C(=O)O)C1` (stereo partly shown) [Argatroban (monohydrate)] displayed a Complete of 1.155.
